Experimental data reported in patent US20030170653A1, “Biological method for the production of tuliposide A and its intermediates” (priority 2001, published 2003).

B1: gabT: γ-aminobutyrate aminotransferase from Escherichia coli (SEQ ID NO: 12) (protein, listed as Escherichia coli)
chain: MNSNKELMQRRSQAIPRGVGQIHPIFADRAENCRVWDVEGREYLDFAGGIAVLNTGHLHPKVVAAVEAQLKKLSHTCFQVLAYEPYLELCEIMNQKVPGDFAKKTLLVTTGSEAVENAVKIARAATKRSGTIAFSGAYHGRTHYTLALTGKVNPYSAGMGLMPGHVYRALYPCPLHGISEDDAIASIHRIFKNDAAPEDIAAIVIEPVQGEGGFYASSPAFMQRLRALCDEHGIMLIADEVQSGAGRTGTLFAMEQMGVAPDLTTFAKSIAGGFPLAGVTGRAEVMDAVAPGGLGGTYAGNPIACVAALEVLKVFEQENLLQKANDLGQKLKDGLLAIAEKHPEIGDVRGLGAMIAIELFEDGDHNKPDAKLTAEIVARARDKGLILLSCGPYYNVLRILVPLTIEDAQIRQGLEIISQCFDEAKQ
B2: e20: γ-aminobutyrate aminotransferase homolog from tulip pistil (SEQ ID NO: 8) (protein)
chain: MMPLACSDPSPPPRFRGHAMLAPFTAGWQTADTEPFIITRSEGCYVYDITGKKYLDSLAGLWCTALGGSEPRLIAAATEQLNQLPFYHSFWNRTTKPSLDLATELIAYFTPKKMGKVFFTNSGSEANDSQVKLVWYYNNALGRPNKKKFIARTKSYHGVTLTSASLTGLPALHQKFDLPLPFVLHTDCPHYWRFHLPGETEEEFSTRLANNLEKLILTEGPETIAAFIAEPVMGAGGVIPPPKTYFEKIQAVIKKYDILFIADEVVTAFGRLGTMFGCEKYNIQPDLVTIAKALSSGYLPIGAILVSPEIAEVVHSQSNKLGSFSHGFTYSGHPVACAVALEALKIYKERDIPGHVQTISPRFQDGLRAFSDSSIIGEIRGTGLILATEFTDNKSPNDLFPSEWGVGAIFGAECAKRGLLVRVAGDNIMMSPPLVISPKEVDELVSIYGEALKCTEERVAELKDSEIAVAK
modifications: tulip pistil

Experiment: Aminotransferase activity of soluble protein extracts (LC/MS of FMOC amino acids)
Type: biochemical
Details: 10 mM substrate; pyruvate (plant enzymes) or α-ketoglutarate (gabT) as acceptor; 37° C., 90 min
Method: Freshly transformed E. coli colonies containing pTrcHis2-TOPO with aminotransferase inserts or pTrcHis2/lacZ were inoculated into 30 mL of LB liquid media containing ampicillin (100 μg/μL) and grown overnight at 37° C. with shaking at 250 rpm. The next morning, the cultures were induced with IPTG at a final concentration of 0.8 mM. The cultures were grown at 37° C. with shaking at 250 rpm for 3 hours. The cultures were then centrifuged at 8,000× g for 10 min and the supernatant was decanted; the resulting pellet was resuspended in 2 mL of buffer (100 mM Phosphate, 1 mM DTT, pH 7.5). Cells were broken by passage through a french press and the resulting extract was centrifuged at 13,000× g for 12 min at 4° C. […]
Soluble protein extracts were assayed for aminotransferase activity. […] The amino acid products of the enzymatic reaction were analyzed as their FMOC (9-fluorenylmethoxycarbonyl) derivatives using an LC/MS system. […] This mixture was diluted 2 fold and then analyzed using an LC/MS coupled system. […] In the LC/MS analysis of the assays using gabT, glutamate eluted at 13 min in a solvent of 17.5% acetonitrile and was detected as the FMOC-sodium ion (m/z 392). […] Alanine eluted at 24 min in a solvent of 35% acetonitrile and was detected as the FMOC-sodium ion (m/z 334).

Row | Molecule | transamination of α-methylene-γ-aminobutyrate
1 | B1 | able to transaminate
2 | B2 | able to transaminate
